Measurements: patent US20250109275A1, “AMINE FATTY ACID ADDUCTS AS TIRE COMPOUNDING ADDITIVES” (priority 2023, published 2025)

How the values were obtained:
[1] = Pour point of the additive; format: physicochemical; design: unit not given here; details: neat additive
[2] = Flash point of the additive; format: physicochemical; details: neat additive

Substance: triethylenetetramine (TETA) oleic acid amidoamine [Inventive Ex. 4]
- Pour Point [1]: 45
- Flash Point [2]: >200 C.
